# Yeast mating assay 2: variants of the scFv Ab-95

The target is the same throughout: PDVDLGDISGINAS, from the HR2 region of SARS-CoV-2 spike.

The variants keep the heavy chain, the linker and the frameworks of Ab-95 (scFv order VH, three GGGGS repeats, VL).
VH: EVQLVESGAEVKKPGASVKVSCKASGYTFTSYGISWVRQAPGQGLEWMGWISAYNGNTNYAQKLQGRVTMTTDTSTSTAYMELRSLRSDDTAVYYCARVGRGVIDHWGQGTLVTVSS
VL: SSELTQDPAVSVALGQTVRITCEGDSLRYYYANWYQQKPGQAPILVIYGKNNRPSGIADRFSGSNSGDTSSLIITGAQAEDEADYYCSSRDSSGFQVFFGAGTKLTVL

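The starting antibody came from a phage panning campaign against this peptide. The library (AAYL52) carries one to three amino acid substitutions per variant, with no insertions or deletions. In AlphaSeq, yeast of one mating type display the scFv and yeast of the other type display the target. After mating in shaken culture at 30 °C for 16 h, diploids were selected and their barcode pairs sequenced. The ratio of observed to expected reads was calibrated, replicate by replicate, on BCL2-family standards whose Kd was known from biolayer interferometry. Mating was done three times.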

Substitutions are numbered in sequence along the VL above, starting at 1 (not Kabat). Scale: log10 of Kd in nM, estimated from mating counts; low values are strong binders. Replicates are averaged; those with no signal do not enter the mean. An entry "no signal" has no value in the source: the pair was not observed among the diploids in any replicate. This suggests poor binding but is not conclusive. Empty control strains, which show no peptide, gave a signal in 28% of pairings with library AAYL52; the median was 3.91 and 95% of these signals were weaker than 2.90. No background was subtracted. Also given: how often the same scFv was detected with the empty control strains. In this assay the parent's reference entry averaged 2.31; its copy inside this library read 2.25.

changes	log10 Kd (nM), mean	detected	control signals
G24L+P54A+S92C	3.39	1/3	1/9
N51I+S89L+R90Y	4.36	2/3	0/9
Y29C+Y31P+F98R	3.48	3/3	3/9
S26R+R53M+S88T	no signal	0/3	1/9
S55W+Q96T+F98D	3.63	3/3	4/9
Y29P+S93P+F98H	3.49	3/3	4/9
Y29I+P54L+G94T	3.77	2/3	2/9
D91H+S92I+S93T	2.26	3/3	2/9
E23R+Y30N+N51M	0.47	3/3	6/9
E23W+N51A+V97D	3.72	3/3	2/9
A32V+S93V+Q96H	2.92	3/3	2/9
S26M+Y29C+G49R	5.80	1/3	2/9
R90W+F95A	2.35	3/3	2/9
Y29N+N33P+F95K	4.67	2/3	3/9
G24Y+S92A+G94L	no signal	0/3	2/9
E23I+Y29A+F98S	2.19	3/3	3/9
G24H+D25I+K50T	3.31	3/3	4/9
G24V+S88C	4.28	3/3	1/9
E23W+D25G+G49I	4.50	1/3	2/9
A32L+N33S+S89L	3.54	3/3	1/9
G24R+S26K+V97R	no signal	0/3	0/9
G24Y+Y31N+S92V	2.63	3/3	2/9
R28K+R53Q+S55C	3.37	3/3	1/9
G24M+L27V+R28F	4.14	2/3	3/9
D25L+Y29C+N52W	4.43	2/3	7/9
D25E+K50V+S89Y	2.97	3/3	6/9
D25Y+Y29A+K50H	2.42	3/3	2/9
G24E+K50E	5.12	1/3	0/9
E23H+L27P+S92K	2.58	3/3	6/9
D25E+G94R+V97C	2.19	3/3	3/9
Y30K+S55K+S93I	2.69	3/3	0/9
D25K+S88P+V97I	4.09	1/3	2/9
N52K+F95I+V97P	3.63	1/3	2/9
R90T+S92C+S93V	no signal	0/3	1/9
A32I+N52K+G94H	4.58	2/3	6/9
D25M+S26V+P54F	3.91	1/3	5/9
S26D+R28H+N51T	3.24	3/3	5/9
E23L+R53F+F98N	no signal	0/3	1/9
N33H+K50F+N52T	3.55	1/3	3/9
L27C+K50F+F98I	3.69	3/3	2/9
S26T+A32G+S88Q	no signal	0/3	0/9
S26V+R28I+Y30R	3.81	3/3	3/9
A32T+N52I+R90Q	4.15	2/3	2/9
G24E+P54M+Q96M	no signal	0/3	0/9
S88M+D91M+V97Y	no signal	0/3	0/9
S89M+S93Y+F95E	3.52	3/3	5/9
S93M+G94S+Q96E	3.70	3/3	1/9
N33V+S88Q+R90A	3.58	1/3	1/9
Y29R+D91T+S93R	3.32	3/3	5/9
P54T+V97T	2.76	3/3	0/9
G24W+S89W+F95A	3.95	1/3	2/9
R90E+G94P+F98W	3.22	3/3	1/9
R28W+Y31F+K50D	2.96	2/3	1/9

From the list, the first 8 with no signal in any replicate:

changes	log10 Kd (nM), mean	detected	control signals
S26R+R53M+S88T	no signal	0/3	1/9
G24Y+S92A+G94L	no signal	0/3	2/9
G24R+S26K+V97R	no signal	0/3	0/9
R90T+S92C+S93V	no signal	0/3	1/9
E23L+R53F+F98N	no signal	0/3	1/9
S26T+A32G+S88Q	no signal	0/3	0/9
G24E+P54M+Q96M	no signal	0/3	0/9
S88M+D91M+V97Y	no signal	0/3	0/9

From the AlphaSeq antibody data of Engelhart et al. 2022 (doi:10.1038/s41597-022-01779-4), copy in the FLAb collection.